# Source: PubChem BioAssay (National Center for Advancing Translational Sciences (NCATS))
# Sampled rows, rich in hits. Any-hit rate of the full collection: about 16%.
# uPA generation: blocks generation of uPA at the cell surface | 330,000 tested, 0.31% active | cell surface uPA generation assay, qHTS | Potency, µM (titrated, usually from 38.3 µM), without a hit: top-dose activity change, negative = inhibition, actives largely listed as inhibitors; active = well fitted inhibition curve with a large enough effect; inconclusive = small, poorly fitted or top-dose-only effect; inactive = no such curve, though single readings can be large or run the other way; tested in mouse RAW 264.7 cells; note: potency is the fitted concentration of half-maximal effect; % is set by controls: 0 for no effect and ±100 for the full control effect; nearly all actives have a fitted effect of over 55% in size
# DT40 TDP1 CPT: growth inhibition of DT40 Tdp1-/-;hTDP1 cells with camptothecin (screen for TDP1 inhibitors). chicken DT40 Tdp1-/-;hTDP1 cells + 20 nM CPT, ATP luminescence, 48 h. Potency, µM (doses to about 46.2 µM), for the others: top-dose activity change, negative = growth inhibition, actives largely listed as inhibitors. 420,000 tested, 12% active. AID 686979; note: potency is the fitted concentration of half-maximal effect; % is set by controls: 0 for no effect and ±100 for the full control effect; nearly all actives have a fitted effect of over 55% in size
#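 Chicken DT40 Tdp1-/- cells stably complemented with human TDP1 were seeded at 400 cells/well in medium containing 20 nM camptothecin, exposed to pin-transferred compounds, and grown at 37 °C for at least 48 hr. Viability was read as ATP luminescence.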
# TDP1 block: inhibitors of human tyrosyl-DNA phosphodiesterase TDP1; AID 485290; recombinant TDP1, AlphaScreen DNA substrate cleavage; 350,000 tested, 0.28% active; Potency, µM (highest dose often 130 µM), for the others: at the highest dose activity change, negative = inhibition, actives largely listed as inhibitors; note: potency is the fitted concentration of half-maximal effect; % is set by controls: 0 for no effect and ±100 for the full control effect; nearly all actives have a fitted effect of over 40% in size
#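 Compounds were preincubated with Tdp1 (1 nM final) for 15 min at room temperature before substrate (15 nM final) started a 5 min reaction; beads (10 ug/ml final) were then added for 10 min before AlphaScreen detection.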
# DT40 TDP1 no CPT: qHTS for Inhibitors of human tyrosyl-DNA phosphodiesterase 1 (TDP1): qHTS in cells in absence of CPT; DT40 Tdp1-/- hTDP1 cells, no CPT, ATP luminescence, 48 h; Potency, µM (titrated, usually from 46.2 µM), without a hit: top-dose activity change, negative = growth inhibition, actives largely listed as inhibitors; 420,000 tested, 15% active; AID 686978, 2013; note: potency is the fitted concentration of half-maximal effect; % is set by controls: 0 for no effect and ±100 for the full control effect; nearly all actives have a fitted effect of over 55% in size
#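 No-CPT arm: Tdp1-/-;hTDP1 DT40 cells (400/well) plus compounds, incubated ≥48 hr at 37 °C. Readout CellTiter-Glo luminescence.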
# miR-21 FLuc: raises the signal of a miR-21 reporter; HeLa miR-21 FLuc reporter, luciferase, 48 h; Potency, µM (top dose mostly 38.3 µM), for inactives: at the highest dose reporter change, positive = more light; AID 2288; 340,000 tested, under 10 active; active = well fitted rising curve with a large enough effect; inconclusive = small, poorly fitted or top-dose-only effect; inactive = no such curve, though single readings can be large or run the other way;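 note: % of control where 0% means no effect; miR-21 action dims this reporter so a rising signal means less miR-21 action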
#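 HeLa cells stably expressing CMV-driven firefly luciferase with a downstream miR-21 binding sequence, endogenously expressing miR-21, were treated with titrations (up to about 40uM final) for 48 hours at 37 degree Celsius. Luciferase luminescence was read after lysis.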
# Starred values were filed as active, the others as inactive; ? = inconclusive; . = no result; [ ] = another dose, or the depositor's remark. Unless noted, calls come from the whole dose curve; as a rule, active = well fitted curve in the direction sought with a large enough effect; inconclusive = small, poorly fitted or top-dose-only effect, or another doubt; inactive = no such curve, though single readings can be large; an effect the other way counts as inactive or inconclusive.
# Assay codes – A = uPA generation; B = DT40 TDP1 CPT; C = TDP1 block; D = DT40 TDP1 no CPT; E = miR-21 FLuc
1	Cn1nc(-c2ccccc2)c(-c2nc(-c3cccc(C(F)(F)F)c3)no2)c1Cl
  A: -0.7% | B: ? | C: -3.8% | D: 1.64µM* | E: -1.3%

2	CN(c1ccccc1C(=O)Nc1ccc2ccccc2c1)S(C)(=O)=O
  A: -4.2% | B: -19.0% | C: . | D: -2.3% | E: .

3	COCC(=O)N(C)[C@H]1C[C@H]2c3cc(N4CCN(C)CC4)ccc3CCN2C(=O)[C@H]1[C@H](C)O
  A: 3.0% | B: -4.7% | C: . | D: 1.9% | E: .

4	C[C@H](O)[C@@H]1C(=O)N2CCc3ccc(-c4cccc(F)c4)cc3[C@@H]2C[C@@H]1N(C)C(=O)C(C)(C)C
  A: -5.9% | B: ? | C: . | D: ? | E: .

5	COCCNC(=S)N(C)[C@H]1C[C@H]2c3cc(-c4ccccc4)ccc3CCN2C(=O)[C@H]1[C@H](C)O
  A: . | B: ? | C: . | D: 9.2µM* | E: .

6	Cc1ccccc1Oc1ccc2c(c1)[C@@H]1C[C@H](N(C)C(=S)Nc3ccc(F)cc3)[C@H]([C@H](C)O)C(=O)N1CC2
  A: . | B: 20.6µM* | C: . | D: ? | E: .

7	COCCNC(=S)N(C)[C@H]1C[C@H]2c3cc(Oc4ccccc4C)ccc3CCN2C(=O)[C@H]1[C@H](C)O
  A: . | B: 14.6µM* | C: . | D: 8.2µM* | E: .

8	Cc1ccc(NC(=O)CSc2nnc3n2CCCCC3)cc1
  A: 1.3% | B: -26.3% | C: 1.4% | D: -12.8% | E: 0.2%

9	COc1ccc(C(=O)/C=C/Nc2ccc(NC(C)=O)cc2)cc1OC
  A: . | B: 16.4µM* | C: 6.7% | D: ? | E: -5.6%

10	COc1ccc(N/C=C/C(=O)c2cc(OC)c(OC)c(OC)c2)cc1
  A: -12.3% | B: 1.03µM* | C: . | D: 1.03µM* | E: 2.5%

# More entries
# Assay codes – A = uPA generation; B = DT40 TDP1 CPT; C = TDP1 block; D = DT40 TDP1 no CPT; E = miR-21 FLuc
11	CCOc1ccc(CCNC(=O)COC(=O)c2ccco2)cc1OCC
  A: -1.2% | B: -14.7% | C: 0.0% | D: -10.5% | E: 6.9%

12	CC(=O)c1ccc(NC(=O)CSc2nc3nn(-c4ccccc4)c(=O)c-3c3n2CCCCC3)cc1
  A: -4.6% | B: 25.9µM* | C: . | D: 16.4µM* | E: .

13	COc1cccc(C=Nc2cccnc2)c1O
  A: . | B: . | C: -2.0% | D: . | E: 0.6%

14	CNC(=O)CO/N=C/c1ccc(N(C)C)cc1
  A: -3.2% | B: 35.1% | C: 1.2% | D: 9.8% | E: -23.0%

15	CS/C(N)=N/N=C/c1ccc([N+](=O)[O-])cc1
  A: -2.6% | B: -17.9% | C: 12.8% | D: -16.3% | E: -25.7%

16	Cc1cc(O)c(C(C)C)cc1N=Cc1ccc(N(C)C)cc1
  A: ? | B: 2.91µM* | C: . | D: 5.17µM* | E: .

17	COc1cccc(C=Nc2cc(C(C)C)c(O)cc2C)c1O
  A: 3.5% | B: 4.11µM* | C: . | D: 3.26µM* | E: .

18	Cc1cc(O)c(C(C)C)cc1N=Cc1ccc([N+](=O)[O-])cc1
  A: ? | B: 7.31µM* | C: . | D: 16.4µM* | E: .

19	O=C(CCn1c(=O)c2cccn2c2cccnc21)N1CCN(c2cccc(C(F)(F)F)c2)CC1
  A: . | B: 14.6µM* | C: 7.7% | D: 9.2µM* | E: ?

20	O=C(CCn1c(=O)c2cccn2c2cccnc21)N1CCN(c2ccc(Cl)cc2)CC1
  A: . | B: 10.3µM* | C: 2.6% | D: 13µM* | E: -7.2%

# Part of the list above in order of formula weight, high to low:
# Assay codes – A = uPA generation; B = DT40 TDP1 CPT; C = TDP1 block; D = DT40 TDP1 no CPT; E = miR-21 FLuc
6	Cc1ccccc1Oc1ccc2c(c1)[C@@H]1C[C@H](N(C)C(=S)Nc3ccc(F)cc3)[C@H]([C@H](C)O)C(=O)N1CC2
  A: . | B: 20.6µM* | C: . | D: ? | E: .

3	COCC(=O)N(C)[C@H]1C[C@H]2c3cc(N4CCN(C)CC4)ccc3CCN2C(=O)[C@H]1[C@H](C)O
  A: 3.0% | B: -4.7% | C: . | D: 1.9% | E: .

1	Cn1nc(-c2ccccc2)c(-c2nc(-c3cccc(C(F)(F)F)c3)no2)c1Cl
  A: -0.7% | B: ? | C: -3.8% | D: 1.64µM* | E: -1.3%

16	Cc1cc(O)c(C(C)C)cc1N=Cc1ccc(N(C)C)cc1
  A: ? | B: 2.91µM* | C: . | D: 5.17µM* | E: .

# New compounds follow:
# Assay codes – A = uPA generation; B = DT40 TDP1 CPT; C = TDP1 block; D = DT40 TDP1 no CPT; E = miR-21 FLuc
21	O=C(NC(=S)Nc1ccccc1Br)c1ccc2c(c1)OCO2
  A: 8.4% | B: 18.7% | C: 2.6% | D: 3.1% | E: -29.4%

22	COc1cc(CC(CC(=O)c2ccc3c(c2)OCO3)C(=O)O)cc(OC)c1OC (stereo not drawn)
  A: 0.4% | B: 14.5% | C: . | D: 1.0% | E: .

23	CC(C)c1ccc(O)c(NC(=S)NC(=O)c2ccc3c(c2)OCO3)c1
  A: -21.9% | B: 13µM* | C: 9.8% | D: 14.6µM* | E: -25.1%

24	COc1cc(C(=O)NNC(=S)NC(=O)c2ccc3c(c2)OCO3)cc(OC)c1OC
  A: 0.7% | B: 20.6µM* | C: 3.9% | D: ? | E: 16.3%

25	COc1cc(C(=O)c2ccc3c(c2)OCO3)cc(OC)c1OC
  A: -16.1% | B: 2.59µM* | C: . | D: 5.17µM* | E: .

26	COc1cc(C(=O)c2cocc2C(=O)c2ccc3c(c2)OCO3)cc(OC)c1OC
  A: -5.5% | B: 0.731µM* | C: 1.3% | D: 0.731µM* | E: ?

27	CCCn1c(SCC(=O)c2c(N)n(C3CC3)c(=O)[nH]c2=O)nc2cc(S(N)(=O)=O)ccc21
  A: -1.9% | B: -7.2% | C: -0.9% | D: 2.8% | E: .

28	COC(C[C@H]1O[C@H]1C(=O)[C@H](C)OCc1ccccc1)OC
  A: ? | B: ? | C: . | D: -9.2% | E: .

29	CCNC(=O)COC(=O)/C=C/c1ccccc1[N+](=O)[O-]
  A: 1.6% | B: 3.5% | C: 3.5% | D: -9.0% | E: 2.8%

30	COc1cc(C(=O)N/N=C(\C)c2ccc3c(c2)OCO3)cc(OC)c1OC
  A: -12.3% | B: 1.64µM* | C: 1.2% | D: 1.64µM* | E: 25.7%

# (continued)
# Assay codes – A = uPA generation; B = DT40 TDP1 CPT; C = TDP1 block; D = DT40 TDP1 no CPT; E = miR-21 FLuc
31	C/C(=N/NC(=O)c1ccc2c(c1)OCO2)c1cccc([N+](=O)[O-])c1
  A: -4.1% | B: -9.1% | C: -3.0% | D: 2.2% | E: -39.2%

32	Cc1ccccc1CN1CC2=C(CCN(Cc3ccccc3)C2=O)N2CCN=C12
  A: . | B: 0.581µM* | C: . | D: 1.3µM* | E: .

33	CC1(C)C(=O)C=C[C@@]2(C)C1C=C[C@@]1(C)C2CC[C@@]2(C)C(c3ccoc3)OC(=O)C3OC312 (stereo partly drawn)
  A: . | B: 16.4µM* | C: 7.7% | D: 11.6µM* | E: .

34	C[C@H]1CN([C@@H](C)CO)C(=O)c2cccc(NC(=O)Nc3ccc(C(F)(F)F)cc3)c2O[C@@H]1CN(C)Cc1ccc(Cl)c(Cl)c1
  A: ? | B: 3.26µM* | C: 0.9% | D: 3.66µM* | E: .

35	C[C@@H]1CN([C@H](C)CO)C(=O)c2cc(NC(=O)Nc3ccc(C(F)(F)F)cc3)ccc2O[C@H]1CN(C)Cc1ccc(Cl)c(Cl)c1
  A: -13.5% | B: ? | C: 2.2% | D: 20.6µM* | E: .

36	C[C@H](CO)N1C[C@H](C)[C@@H](CN(C)Cc2ccc(Cl)c(Cl)c2)Oc2c(NC(=O)CCC(F)(F)F)cccc2C1=O
  A: ? | B: 18.4µM* | C: 3.1% | D: 11.6µM* | E: .

37	C[C@@H]1CCCCO[C@@H](CN(C)Cc2ccc(Cl)c(Cl)c2)[C@@H](C)CN([C@H](C)CO)C(=O)c2cc(NC(=O)CCC(F)(F)F)ccc2O1
  A: . | B: 8.2µM* | C: . | D: 10.3µM* | E: .

38	C[C@H](CO)N1C[C@H](C)[C@@H](CN(C)S(=O)(=O)c2ccc(F)cc2)Oc2c(NC(=O)CCC(F)(F)F)cccc2C1=O
  A: 4.8% | B: ? | C: -0.1% | D: -1.3% | E: .

39	Cc1cc(=O)[nH]c2[nH][nH]c(=O)c12
  A: 4.5% | B: -11.2% | C: . | D: -0.6% | E: .

40	Cc1ccc(CS(=O)(=O)Cc2ccc(C(=O)NC3CC3)o2)cc1
  A: 13.1% | B: ? | C: 0.4% | D: ? | E: 8.6%

# Remaining list, next part:
# Assay codes – A = uPA generation; B = DT40 TDP1 CPT; C = TDP1 block; D = DT40 TDP1 no CPT; E = miR-21 FLuc
41	CCc1noc(C)c1C(=O)Nc1ccc(C(F)(F)F)cc1
  A: -3.5% | B: -11.7% | C: 2.5% | D: -1.2% | E: -1.9%

42	CN(C)S(=O)(=O)c1ccc2c(c1)c(=O)c(C(=O)N1CCN(c3ccccn3)CC1)cn2C
  A: -22.6% | B: -1.4% | C: 3.7% | D: -19.7% | E: 6.0%

43	Cc1ccc(S(=O)(=O)N(CC(=O)Nc2ccc3c(c2)OCO3)c2ccc(C)c(Cl)c2)cc1
  A: . | B: 16.4µM* | C: -11.0%[12.3 µM] | D: ? | E: 1.9%

44	COc1ccc(S(=O)(=O)N(CC(=O)Nc2ccc3c(c2)OCO3)c2ccc(C)cc2)cc1
  A: . | B: ? | C: . | D: ? | E: 1.4%

45	COc1ccccc1N(CC(=O)Nc1cc(C)on1)S(=O)(=O)c1ccc(Cl)cc1
  A: -3.6% | B: 18.4µM* | C: 4.5% | D: 18.4µM* | E: 6.5%
